For one compound, inhibition results are on record in patent publication US4298739A, “Novel carbostyril derivatives” (priority 1977, dated 1981).

The target in the assay is T1, cyclic AMP phosphodiesterase (Oryctolagus cuniculus, UniProt G1ST54).
T1 construct: the supernatant was collected to use it as a crude enzyme solution; from tissue; host or cells: rabbit platelets (from platelet-rich plasma), 100,000 xg supernatant, DEAE-cellulose fraction
T1 sequence (G1ST54 1-1128): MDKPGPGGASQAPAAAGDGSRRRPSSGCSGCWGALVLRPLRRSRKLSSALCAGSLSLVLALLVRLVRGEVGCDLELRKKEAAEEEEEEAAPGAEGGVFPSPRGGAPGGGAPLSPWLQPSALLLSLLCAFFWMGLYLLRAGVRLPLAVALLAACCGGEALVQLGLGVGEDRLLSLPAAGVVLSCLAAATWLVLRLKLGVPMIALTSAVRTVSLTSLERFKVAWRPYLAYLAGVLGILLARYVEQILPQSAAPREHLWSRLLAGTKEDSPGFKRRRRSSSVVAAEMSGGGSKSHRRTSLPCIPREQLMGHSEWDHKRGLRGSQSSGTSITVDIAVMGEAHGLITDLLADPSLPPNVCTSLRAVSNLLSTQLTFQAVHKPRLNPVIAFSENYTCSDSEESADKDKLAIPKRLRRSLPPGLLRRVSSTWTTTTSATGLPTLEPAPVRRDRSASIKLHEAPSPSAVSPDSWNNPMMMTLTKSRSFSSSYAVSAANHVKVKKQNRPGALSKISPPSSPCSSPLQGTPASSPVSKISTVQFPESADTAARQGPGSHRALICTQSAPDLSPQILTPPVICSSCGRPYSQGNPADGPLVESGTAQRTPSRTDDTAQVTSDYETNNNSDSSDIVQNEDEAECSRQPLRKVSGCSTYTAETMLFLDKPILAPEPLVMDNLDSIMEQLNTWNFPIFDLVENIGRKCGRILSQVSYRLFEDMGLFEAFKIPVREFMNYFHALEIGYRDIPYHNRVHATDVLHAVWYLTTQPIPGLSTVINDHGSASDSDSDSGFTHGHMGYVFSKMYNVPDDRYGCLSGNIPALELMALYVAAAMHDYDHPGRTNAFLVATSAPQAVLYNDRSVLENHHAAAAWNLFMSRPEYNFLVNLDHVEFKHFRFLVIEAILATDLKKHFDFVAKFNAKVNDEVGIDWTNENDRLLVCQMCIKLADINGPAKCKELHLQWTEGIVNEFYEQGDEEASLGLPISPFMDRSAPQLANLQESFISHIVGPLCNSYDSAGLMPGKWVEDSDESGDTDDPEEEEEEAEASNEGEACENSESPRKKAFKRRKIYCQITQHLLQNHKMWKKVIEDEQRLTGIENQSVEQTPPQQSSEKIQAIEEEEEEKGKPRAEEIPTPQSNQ
In words: Obstructive action against cyclic AMP phosphodiesterase. Type of assay: biochemical, rabbit. The note with it: pH 8, read-out: phosphodiesterase obstruction rate. The procedure:
The obstructive action against cyclic AMP phosphodiesterase was measured according to the activity measuring method described in "Biochimica et Biophysica Acta", Vol. 429, pp. 485-497 (1976) and "Biochemical Medicine", Vol. 10, pp. 301-311 (1974).
That is, for determining the obstructive activity against cyclic AMP phosphodiesterase, 10 ml of a solution obtained by adding 1 mmol of MgCl2 into 50 mmol of tris-hydrochloric acid buffer with pH 7.4 was added to the platelets obtained by further centrifuging the abovesaid rabbit PRP at 3,000 r.p.m. for 10 minutes, and the suspended platelets were ground by a Teflon potter type homogenizer. This was followed by two times of freezing and thawing treatment and 300-second fracturing with 200 watt supersonic waves. After additional 60-minute centrifugation with 100,000 xg, the supernatant was collected to use it as a crude enzyme solution.
10 Milliliters of this crude buffer solution was added to a 1.5×20 cm DEAE-cellulose column which has previously been buffered with 50 mmol of tris-acetate buffer (pH 6.0), followed by washing and elution with 30 ml of 50 mmol tris-acetate buffer, and this buffer solution was subjected to linear gradient elution with 0 to 0.5 moles of sodium acetate-tris-acetatebuffer. The flow rate was 0.5 ml/min, and 5 ml of each fraction was batched out. […] This fraction was used as cyclic AMP phosphodiesterase.
0.1 Milliliter of an aqueous solution of each test compound of a specified concentration was mixed with 40 mmol of tris-hydrochloric acid buffer (pH 8.0, containing 50 μg of cow serum albumin and 4 mmol of MgCl2) containing predetermined 1.0 μmol of cyclic AMP (tritium cyclic AMP), and 0.2 ml of this mixed solution was used as substrate solution. […]
The reaction system was then immersed in boiling water for 2 minutes to stop the reaction, and then this reaction solution was cooled in ice water and, for converting the produced tritium 5'-AMP into tritium adenosine, the solution was added with 0.05 ml (1 mg/ml) of snake poison as 5'-nucleotidase and reacted at 30° C. for 10 minutes. […] The whole quantity of the elutant was added with 10 ml of a triton-toluene type scintillator and the produced tritium adenosine was measured by a liquid scintillation counter to determine the phosphodiesterase activity.
In this way, the phosphodiesterase activation value (Vs) of the test compounds of the respective concentrations was determined, and the phosphodiesterase obstruction rate (%) was determined from said activation value (Vs) and control value (Vc) (obtained from water not containing any test compound) from the following formula: [formula]

On to `COc1ccc(Cc2nccc3cc(OC)c(OC)cc23)cc1OC` [Papaverine, papaverine, reference compound], for which the inhibition at 0.1 µM was determined as 57.3%, the inhibition at 1 µM stood at 91.4%, the inhibition at 10 µM stood at 99.8% and the inhibition at 100 µM was determined as 100%.
